Reference: ChEMBL document CHEMBL1140999, “Succinyl hydroxamates as potent and selective non-peptidic inhibitors of procollagen C-proteinase: design, synthesis, and evaluation as topically applied, dermal anti-scarring agents” (Bioorg Med Chem Lett, 2008)

Amino acid sequences for entries named in this document (tags omitted). A change or cut given only in a name is not applied to a line headed by its entry.
UniProt P08253: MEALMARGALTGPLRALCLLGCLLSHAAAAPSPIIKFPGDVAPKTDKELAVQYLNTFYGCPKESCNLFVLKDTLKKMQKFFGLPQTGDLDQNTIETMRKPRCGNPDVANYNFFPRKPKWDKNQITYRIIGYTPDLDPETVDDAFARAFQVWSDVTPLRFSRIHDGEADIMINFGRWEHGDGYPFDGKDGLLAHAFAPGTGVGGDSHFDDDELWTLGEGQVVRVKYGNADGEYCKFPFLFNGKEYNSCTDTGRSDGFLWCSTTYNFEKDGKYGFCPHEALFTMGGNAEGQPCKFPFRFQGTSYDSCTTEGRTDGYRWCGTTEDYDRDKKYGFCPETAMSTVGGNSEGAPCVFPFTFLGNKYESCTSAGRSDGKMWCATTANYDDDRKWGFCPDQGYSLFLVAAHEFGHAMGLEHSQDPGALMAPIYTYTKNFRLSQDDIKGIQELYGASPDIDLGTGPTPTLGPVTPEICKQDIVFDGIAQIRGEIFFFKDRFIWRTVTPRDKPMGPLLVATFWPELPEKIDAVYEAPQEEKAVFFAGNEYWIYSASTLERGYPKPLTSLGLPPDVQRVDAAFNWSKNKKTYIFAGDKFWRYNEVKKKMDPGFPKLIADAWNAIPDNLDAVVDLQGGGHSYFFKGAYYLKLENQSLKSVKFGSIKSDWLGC

Target: 72 kDa type IV collagenase (Homo sapiens, UniProt P08253)
Assay: Inhibition of human MMP2 by fluorescence assay

| SMILES | IC50 |
| --- | --- |
| CN(C)C(=O)c1noc([C@H](CCCC2CCCCC2)CC(=O)NO)n1 | > 100 µM |
| O=C(O)CNC(=O)c1noc([C@H](CCCC2CCCCC2)CC(=O)NO)n1 | > 100 µM |
| O=C(C[C@@H](CCCC1CCCCC1)c1nc(C(=O)N2CCCCC2)no1)NO | 74.9 µM |
| CC(C)NC(=O)c1noc([C@H](CCCC2CCCCC2)CC(=O)NO)n1 | > 100 µM |
| CNC(=O)c1noc([C@H](CCCC2CCCCC2)CC(=O)NO)n1 | > 30 µM |
| CCCNC(=O)c1noc([C@H](CCCC2CCCCC2)CC(=O)NO)n1 | 21.7 µM |
| CN(Cc1ccccc1)C(=O)c1noc([C@H](CCCC2CCCCC2)CC(=O)NO)n1 | 81.8 µM |
| CN(Cc1ccccn1)C(=O)c1noc([C@H](CCCC2CCCCC2)CC(=O)NO)n1 | 50.5 µM |
| O=C(C[C@@H](CCCC1CCCCC1)c1nc(C(=O)NCc2ccccn2)no1)NO | > 30 µM |
| O=C(C[C@@H](CCCC1CCCCC1)c1nc(C(=O)NCC2CC2)no1)NO | > 30 µM |
